The values below come from US20220024904A1, “REAGENT FOR BIOCONJUGATION VIA IRREVERSIBLE REBRIDGING OF DISULFIDE LINKAGES” (Research Foundation of the City University of New York, priority 2020, published 2022).

The test system of the assay is HER2-positive BT474 cells. The assay can be described thus: Flow cytometry cell binding, HER2-positive cells. Particulars: for cell populations detected after incubation: BT474 cells, identical conditions; for binding to cells: flow cytometry, HER2-positive BT474 cells. Format: cell-based, human. The method, then: To this end, flow cytometry experiments were performed using two human breast cancer cell lines: HER2-positive BT474 cells and HER2-negative MDA-MB-235 cells. […] Just as important, however, are the differences between the behavior of the two FITC-modified Fabs and HER2-positive BT474 cells.
Background: A flow cytometer gives signals particle by particle.

As to FabHER2-DiPODS-FITC, the “cell populations detected after incubation” value is recorded as “only a single population of fluorophore-positive cells” and the binding to cells entry was “binding was observed”. In addition, the immunoreactivity entry (compared with FabHER2-Lys-FITC) is recorded as “higher”.

For FabHER2-Lys-FITC [reference compound], the “cell populations detected after incubation” value was “both fluorophore-positive and fluorophore-negative cells”; the binding to cells result is reported as “binding was observed”.
